# AlphaSeq binding of Ab-14 heavy chain variants to a spike HR2 peptide

From the AlphaSeq antibody data of Li et al. 2023 (doi:10.1038/s41467-023-39022-2), copy in the FLAb collection.

The target is the same throughout: PDVDLGDISGINAS, from the HR2 region of SARS-CoV-2 spike.

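Phage display of a naive human antibody library on the peptide gave the parent. This is the validation round: designs drawn from the data on random variants, tested in the same kind of assay. Several design methods are mixed in this list. AlphaSeq pools MATa yeast showing the antibodies with MATalpha yeast showing the peptide. Mating (16 h, 30 °C) was followed by selection of diploids and sequencing of their barcodes. Read counts were normalised to the haploid input and turned into Kd by a linear fit to BCL2-family pairs of known affinity, for each replicate. Mating was done six times.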

Parent: Ab-14, a human scFv built as VH, a 15-residue (Gly4Ser)3 linker, VL. Only the CDRs of the heavy chain vary.
VH: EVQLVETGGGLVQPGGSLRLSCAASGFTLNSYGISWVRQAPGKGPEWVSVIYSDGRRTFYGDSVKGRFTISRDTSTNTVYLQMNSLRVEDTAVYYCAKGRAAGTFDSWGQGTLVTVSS
VL: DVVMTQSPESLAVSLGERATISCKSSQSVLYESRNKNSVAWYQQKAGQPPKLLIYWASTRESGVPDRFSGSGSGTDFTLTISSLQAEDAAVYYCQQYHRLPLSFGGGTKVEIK

The parent's heavy chain CDRs are GFTLNSYGIS, VIYSDGRRTFYGDSVK, GRAAGTFDS; each variant's own CDRs replace them letter for letter. Values are log10 of the apparent Kd in nM; lower means stronger binding. Replicates are averaged; those with no signal do not enter the mean. Where no diploid with the target was found in any replicate, the entry reads "nd": below detection, most likely a poor binder, though not proof of it. Of ten entries with the parent sequence, four were seen in most replicates (averages 0.34 to 2.37), three in one and three in none, so single entries are noisy. In the paper, a design with two or fewer of six values counts as a poor binder. The range of this assay differs from that of the first round, and the authors advise against merging the two. Nonspecific signal, from three strains lacking the peptide, appeared in 1% of pairings of all heavy chain designs, centred on 2.08 (5% of these signals below 0.84); values are not corrected for it.

With GFDFQEYGIS / VIYADGMRTNALDDVK / GNIGATFDD the result was nd (0 of 6 replicates).
With GFNINEYGIS / VIYADGKRTAYSESVK / GNSAGTMNH the result was nd (0 of 6 replicates).
With GFDLDEYGIS / VIYADGMRTYYADDVK / GNVAGTFDV the result was -0.65 (6 of 6 replicates).
With GFSLNSYGIS / VIYSDGRRTFYSDSVK / GEAAGTFDN the result was 0.15 (6 of 6 replicates).
With GFDLNEYGIS / VIYADGMRTAYANDVK / GNVAGTFDI the result was -0.45 (6 of 6 replicates).
With GFELNEYGIS / VIYSDGRRTMYTDSVK / GRCAGTFDS the result was nd (0 of 6 replicates).
With GFDLDEEGIS / VIYADGSRTAYSDNVK / GGFDIKVIV the result was nd (0 of 6 replicates).
With GFDLNEYGIS / VIYADGVRTAYADDVK / GNQAGTFDI the result was -0.53 (6 of 6 replicates).
With GFDIQEYGIS / VIYADGIRSAYIDNVK / GDTGSQFLE the result was nd (0 of 6 replicates).
With GFGLNEYGIS / VIYSDGRRTFYGDSVK / GRAAGTFDS the result was 0.20 (6 of 6 replicates).
With GFSLNDYGIS / VIYSDGRRTFYGDSVK / GRAALTFDR the result was nd (0 of 6 replicates).
With GFELNSYGIS / VIYSDGRRTFYADSVK / GVAAGTFDS the result was 0.79 (6 of 6 replicates).
With GFDLNDYGIS / VIYSDGRRTFYKDSVK / GRAAGTFDS the result was 0.36 (6 of 6 replicates).
With GFDLNEYGIS / VIYADGRRTFYSDSVK / GNNGGTFDI the result was -0.09 (6 of 6 replicates).
With GFDLDEYGIS / VIYADGMRTAYADSVK / GGNAGTFDM the result was 0.28 (6 of 6 replicates).
With GFDLNSYGIS / VIYSDGRRTFYADRVK / GQAAGTFDS the result was 0.47 (6 of 6 replicates).

Continued, with the values leading:

Result nd (0 of 6 replicates), variant GFTLNSYGIS / VIYSDGRRTFYHDSVK / GKAAGIFDT.
Result nd (0 of 6 replicates), variant GFTLNEYGIS / VIYSDGARTFYADSVK / GQAALTFDS.
Result -0.41 (6 of 6 replicates), variant GFDLNEYGIS / VIYADGQRTAYSDSVK / GNVAGTFDM.
Result 0.06 (6 of 6 replicates), variant GFSLNEYGIS / VIYSDGRRTFYIDSVK / GTAAGTFDS.
Result -0.50 (6 of 6 replicates), variant GFDINEYGIS / VIYADGRRTFYTDSVK / GGNAGTFDM.
Result 2.68 (1 of 6 replicates), variant GFALNSYGIS / VIYSDGERTFYGDKTK / GEAAGTFDS.
Result nd (0 of 6 replicates), variant GFNLEDYGIS / VIYSDGRRTFYGDEVK / GSAAGKFLS.
Result 2.11 (1 of 6 replicates), variant GFTLNDYGIS / VIYRDGFRTFYGDSVK / GRHAGTFDS.
Result 0.33 (6 of 6 replicates), variant GFTLNSYGIS / VIYSDGVRTFYSDSVK / GDAAGTFDS.
Result 1.12 (2 of 6 replicates), variant GFDLNSYGIS / VIYSDGRRTFYQDRVK / GRIAGTFDS.
Result 2.47 (1 of 6 replicates), variant GFTLNSYGIS / VIYSDGRRTFYSDSVK / GRAGGMFDS.
Result -0.13 (6 of 6 replicates), variant GFDLNEYGIS / VIYADGRRTAYSDSVK / GNNAGTFDI.
Result 1.23 (6 of 6 replicates), variant GFDLNEYGIS / VIYADGMRTAYADSVK / GSNAGTFDM.
Result -0.30 (6 of 6 replicates), variant GFTLNEYGIS / VIYSDGRRTFYTDSVK / GRNAGTFDS.
Result nd (0 of 6 replicates), variant GFTLLSYSIS / VIYSDGRRTFYSDSVK / GRAAGTFVS.
Result 0.79 (1 of 6 replicates), variant GFTLNSYGIS / VIYSDGQRTFYGDSVR / GRAAGTFDT.
Result -0.32 (6 of 6 replicates), variant GFDLNEYGIS / VIYADGQRTAYADSVK / GEVAGTFDV.

Excerpt, the final 2 entries:

| CDR-H1 | CDR-H2 | CDR-H3 | mean, log10 nM | seen in |
|---|---|---|---|---|
| GFTLNSYGIS | VIYSDGQRTFYGDSVR | GRAAGTFDT | 0.79 | 1 of 6 |
| GFDLNEYGIS | VIYADGQRTAYADSVK | GEVAGTFDV | -0.32 | 6 of 6 |